Reference: US9783499B2, “Quinoline derivatives and their applications” (Shenyang Pharmaceutical University, priority 2012, dated 2017)

Assays:
Assay type in all cases: cell-based
Settings in all cases: 72 hours
[1] = tested on: U87MG (Human malignant glioblastoma cell); experiment: In vitro anti-tumor cellular activity (MTT), U87MG
[2] = tested on: H460 (human lung cancer cell); experiment: In vitro anti-tumor cellular activity (MTT), H460
Description: (§1) The in vitro inhibitory activity of the quinoline derivatives of formula I in the invention was evaluated against the cancer cell lines H460 (human lung cancer cell), HT-29 (colon cancer cell), MKN-45 (human gastric carcinoma cell), SMMC-7721 (hepatoma cell), MDA-MB-231 (human beast cancer cell), U87MG (Human malignant glioblastoma cell). […] After pouring the cell dissociation buffer to the centrifugetube, nutrient solution was added to stop digestion. The centrifugetube were centrifuged for 10 min under 800 r/min, the liquid supernatant was removed, 5 mL culture solution was added, after mixing by pipetting the cell, took 10 μL cell suspension to the cell counting plat, and adjusted the cell concentration to 10^4/well. Among the 96 wells, A1 is empty, 100 μL of cell suspension were added to the other wells. The 96 well plates were incubated in the incubator for 24 h. […] The 96-well plates were placed in an incubator and cultivated for 72 hours. (3) The culture media containing the compounds in the 96-well plates was discarded, and the cells were washed with phosphate buffered solution (PBS) twice. Each well was added with 100 μL MTT (tetrazole) (0.5 mg/mL), and then placed in an incubator to incubate for 4 hours, after which MTT solution was discarded and 100 μL dimethyl sulfoxide was added thereto. The reaction product of survival cells with MTT, i.e. formazan, was dissolved completely by oscillation on a magnetic oscillator, then placed into a microplate reader to measure the results, and the IC50 values of compounds could be deduced by Bliss method.

[3] = tested on: SMMC-7721 (hepatoma cell); experiment: In vitro anti-tumor cellular activity (MTT), SMMC-7721
Description: as §1

[4] = tested on: MDA-MB-231 (human beast cancer cell); experiment: In vitro anti-tumor cellular activity (MTT), MDA-MB-231
Description: as §1

[5] = tested on: MKN-45 (human gastric carcinoma cell); experiment: In vitro anti-tumor cellular activity (MTT), MKN-45
Description: as §1

[6] = tested on: HT-29 (colon cancer cell); experiment: In vitro anti-tumor cellular activity (MTT), HT-29

Row | Molecule | U87MG IC50 [1] [µg/mL] | H460 IC50 [2] [µg/mL] | SMMC-7721 IC50 [3] [µg/mL] | MDA-MB-231 IC50 [4] [µg/mL] | MKN-45 IC50 [5] [µg/mL] | HT-29 IC50 [6] [µg/mL]
1 | COc1cc2c(Oc3ccc(C=NNC(=O)Nc4ccc(Cl)cc4)cc3F)ccnc2cc1OCCCN1CCN(C)CC1 [Example 53, (E)-N^1-(4-chlorophenyl)-N^4-(3-fluoro-4-(6-methoxy-7-(3-(4-methyl-1-piperazinyl)propoxy)quinoline-4-yloxy)benzaldehyde)semicarbazone] | 0.54 | 0.32 | 0.53 | 0.25 | 0.48 | 0.19
2 | COc1cc2c(Oc3ccc(NC(=O)NN=Cc4ccc(F)cc4Cl)cc3F)ccnc2cc1OCCCN1CCCC1 | 0.95 | 0.33 | 1.0 | 0.40 | 0.62 | 0.15
3 | COc1cc2c(Oc3ccc(C=NNC(=O)Nc4cc(Cl)cc(Cl)c4)cc3F)ccnc2cc1OCCCN1CCCCC1 [Example 48, (E)-N^1-(3,5-dichlorophenyl)-N^4-(3-fluoro-4-(6-methoxy-7-(3-(piperidin-1-yl)propoxy)quinoline-4-yloxy)benzaldehyde)semicarbazone] | 0.33 | 0.077 | 0.20 | 0.13 | 0.082 | 0.16
4 | COc1cccc(C=NNC(=O)Nc2ccc(Oc3ccnc4cc(OCCCN5CCCC5)c(OC)cc34)c(F)c2)c1 | 0.91 | 0.99 | 1.7 | 0.85 | 1.3 | 1.2
5 | COc1cc2c(Oc3ccc(C=NNC(=O)Nc4ccc(Cl)c(C(F)(F)F)c4)cc3F)ccnc2cc1OCCCN1CCN(C)CC1 [Example 51, (E)-N^1-(4-chloro-3-(trifluoromethyl)phenyl)-N^4-(3-fluoro-4-(6-methoxy-7-(3-(4-methyl-1-piperazinyl)propoxy)quinoline-4-yloxy)benzaldehyde)semicarbazone] | – | 0.23 | 1.4 | 0.19 | 0.98 | 0.31
6 | (E)-N^1-(3,5-dimethoxyphenyl)-N^4-(3-fluoro-4-(6-methoxy-7-(3-(4-methylpiperidin-1-yl)propoxy)quinoline-4-yloxy)benzaldehyde)semicarbazone [Example 59] | 1.9 | 0.60 | 3.5 | 0.45 | 0.80 | 1.4
